Literature values in US20220313828A1, “Use of low-molecular glycosidically bound terminal galactosides and fucosides for bonding to toxins that act as galectins in the treatment of intoxications, in particular ricin intoxications” (published 2022).

System: breast cancer metastases
Settings: reference (6)

## N-(1-deoxy-D-lactulos-1-yl)-L-leucine
  test on breast cancer metastases: successfully tested
